According to ChEMBL document CHEMBL4330080, “Hydroxyazole scaffold-based Plasmodium falciparum dihydroorotate dehydrogenase inhibitors: Synthesis, biological evaluation and X-ray structural studies” (Eur J Med Chem, 2019):

Biological target: T1, Dihydroorotate dehydrogenase (Plasmodium falciparum, UniProt Q54A96)
T1 sequence (Q54A96 whole entry): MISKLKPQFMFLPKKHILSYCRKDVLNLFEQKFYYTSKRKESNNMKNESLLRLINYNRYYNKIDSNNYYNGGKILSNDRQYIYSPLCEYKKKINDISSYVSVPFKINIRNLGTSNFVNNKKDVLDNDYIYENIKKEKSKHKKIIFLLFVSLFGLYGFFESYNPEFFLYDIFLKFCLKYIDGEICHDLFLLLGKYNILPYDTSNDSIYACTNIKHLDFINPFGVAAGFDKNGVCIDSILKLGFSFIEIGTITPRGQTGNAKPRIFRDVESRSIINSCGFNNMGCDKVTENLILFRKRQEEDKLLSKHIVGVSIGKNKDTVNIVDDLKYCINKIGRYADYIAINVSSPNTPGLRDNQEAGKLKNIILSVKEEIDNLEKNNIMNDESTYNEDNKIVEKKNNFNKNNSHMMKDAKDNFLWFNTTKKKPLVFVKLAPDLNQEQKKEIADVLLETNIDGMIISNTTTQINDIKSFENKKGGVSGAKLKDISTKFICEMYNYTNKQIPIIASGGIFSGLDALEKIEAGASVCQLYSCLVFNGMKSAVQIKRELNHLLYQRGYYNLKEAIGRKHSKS
Test: Inhibition of Plasmodium falciparum recombinant N-terminal His6-tagged DHODH (159-569 residues) expressed in Escherichia coli BL21(DE3) using DHO as substrate measured every min for 5 mins by DCPI dye-based photometric analysis
In short: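 N-terminally truncated recombinant enzyme, His-tag IMAC then size exclusion purified, in 50 mM Tris/HCl pH 7.8, 150 mM KCl, 0.1% Triton X-100 with 60 μM DCIP and 20 μM decylubiquinone. Compounds added at 1% final DMSO, or 5% for weak binders. Started with 200 μM DHO; initial rate from DCIP absorbance at 600 nm over the first 5 min. IC50 is mean ± SE of three experiments.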

IC50: 65 nM
SMILES: Cc1cc(Nc2ccc3ccccc3c2)n2ncnc2n1
